Assay [1] concerns the target T1, serotonin S2 (5-HT2) receptors (Rattus norvegicus, UniProt P14842).
T1 construct: cortical tissue is dissected and weighed; from tissue; host or cells: cerebral cortex membranes of male Wistar (Mol:Wist) rats
The assay can be described thus: inhibition of 3H-ketanserin binding to serotonin S2 (5-HT2) receptors in rat cortex in vitro. The note with it: 3H-ketanserin 0.5 nM, rat cortex membranes, read-out: Binding IC50, 3H Ket. Here is the method:
INHIBITION OF ^3 H-KETANSERIN BINDING TO SEROTONIN S2 (5-HT2)RECEPTORS IN RAT CORTEX IN VITRO
By this method the inhibition by drugs of the binding of ^3 H-Ketanserin (0.5 nM) to Serotonin S2 (5-HT2) receptors in membranes from rat is determined in vitro. Method in Hyttel, Pharmacology & Toxicology, 61, 126-129. 1987.
Male Wistar (Mol:Wist) rats (125-250 g) are sacrifices and cortical tissue is dissected and weighed. The tissue is homogenized (Ultra Turrax, 10 sec.) in 10 ml of ice-cold 50 mM tris buffer pH 7.7 (at 25° C.). The centrifuge glassware used in this step has been rinsed by sonication for 10 min. in ethanol. The homogenate is centrifuged twice at 20,000 g for 10 min. at 4° C. with rehomogenization of the pellet in 10 ml ice-cold buffer. The final pellet is homogenized in 500 vol (w/v) ice-cold buffer.
Incubation tubes kept on ice in triplicate receive 100 μl of drug solution in water (or water for total binding) and 2000 μl of tissue suspension (final tissue content corresponds to 4 mg original tissue). […] After shaking for 1 h and storage 2 hrs in the dark the content of radioactivity is determined by liquid scintillation counting. […]
(§1) The measured cpm are plotted against drug concentration on semilogarithmic paper and the best fitting S-shaped curve is drawn. […]

By UniProt entry, the sequences of proteins in these tests, tags left out.
UniProt P14842, whole entry: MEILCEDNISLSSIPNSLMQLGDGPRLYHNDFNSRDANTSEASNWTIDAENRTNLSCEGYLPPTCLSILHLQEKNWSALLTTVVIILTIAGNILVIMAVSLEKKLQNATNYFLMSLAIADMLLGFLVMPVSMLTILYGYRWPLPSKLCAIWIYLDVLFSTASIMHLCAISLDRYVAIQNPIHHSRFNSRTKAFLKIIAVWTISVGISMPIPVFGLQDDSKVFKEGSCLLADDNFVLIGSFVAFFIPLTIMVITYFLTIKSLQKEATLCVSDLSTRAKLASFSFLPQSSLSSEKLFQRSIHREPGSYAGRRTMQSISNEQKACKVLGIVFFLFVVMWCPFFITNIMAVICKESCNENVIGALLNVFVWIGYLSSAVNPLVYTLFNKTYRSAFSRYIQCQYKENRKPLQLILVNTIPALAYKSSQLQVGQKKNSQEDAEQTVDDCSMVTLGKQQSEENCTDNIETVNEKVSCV
UniProt P61169, whole entry: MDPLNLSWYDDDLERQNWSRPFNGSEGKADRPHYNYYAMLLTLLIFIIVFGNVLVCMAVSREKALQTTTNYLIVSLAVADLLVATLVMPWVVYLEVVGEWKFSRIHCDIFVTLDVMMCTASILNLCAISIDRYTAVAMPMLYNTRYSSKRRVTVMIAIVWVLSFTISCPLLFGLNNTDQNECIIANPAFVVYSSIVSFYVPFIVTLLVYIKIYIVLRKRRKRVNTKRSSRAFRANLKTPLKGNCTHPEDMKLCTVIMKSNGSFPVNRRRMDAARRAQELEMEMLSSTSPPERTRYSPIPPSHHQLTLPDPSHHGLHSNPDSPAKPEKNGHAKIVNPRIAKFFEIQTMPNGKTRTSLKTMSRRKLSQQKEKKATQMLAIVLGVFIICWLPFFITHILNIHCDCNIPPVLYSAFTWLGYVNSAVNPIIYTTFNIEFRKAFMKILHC

Assay [2] concerns the target T2, dopamine D-2 receptors (Rattus norvegicus, UniProt P61169).
T2 construct: striatal tissue is dissected and weighed; from tissue; host or cells: corpus striatum membranes of male Wistar rats
The assay can be described thus: inhibition of 3H-spiperone binding to dopamine D-2 receptors in rat corpus striatum in vitro. The note with it: 3H-spiperone 0.5 nM, rat corpus striatum membranes, read-out: Binding IC50, 3H Spi. Here is the method: INHIBITION OF ^3 H-SPIPERONE BINDING TO DOPAMINE D-2 RECEPTORS IN RAT CORPUS STRIATUM IN VITRO
By this method the inhibition by drugs of the binding of ^3 H-spiperone (0.5 nM) to dopamine D-2 receptors in membranes from rat corpus striatum is determined in vitro. Method and results in Hyttel and Larsen, J. Neurochem, 44, 1615-1622, 1985).
Male Wistar (Mol:Wistar) rats (125-250 g) are sacrificed and striatal tissue is dissected and weighed. The tissue is homogenized (Ultra Turrax, 10 sec.) in 10 ml of ice-cold 50 mM K-phosphate buffer pH 7.4 (at 25° C.). The homogenate is centrifuged twice at 20,000 g for 10 min. at 4° C. with rehomogenization of the pellet in 10 ml ice-cold buffer. The final pellet is homogenized in 1300 vol (w/v) ice-cold buffer.
Incubation tubes kept on ice in triplicate receive 100 μl of drug solution in water (or water for total binding) and 4000 μl of tissue suspension (final tissue content corresponds to 3.08 mg original tissue). The binding experimental is initiated by addition of 100 μl of ^3 H-spiperone (final concentration 0.5 nM) and by placing the tubes in a 37° C. water bath. […] After shaking for 1 h and storage 2 hrs in the dark the content of radioactivity is determined by liquid scintillation counting. […]
as §1

These results are taken from patent publication US5216001A, “Indole derivatives” (H. Lunbeck A/S, priority 1990, dated 1993).

As a reminder, the IC50 is the concentration that gives 50% inhibition. On to `O=C1NCCN1CCN1CCC(c2cn(-c3ccc(F)cc3)c3ccc(Cl)cc23)CC1` [sertindole (Lu 23-174), 5-chloro-1-(4-fluorophenyl)-3-[1-[2-(2-imidazolidinon-1-yl)ethyl]-4-piperidyl]-1H-indole, reference compound], for which the IC50 is 0.72 nM in assay [1] and 4.1 nM in assay [2].
